Values quoted from earlier work, collected in US20050250788A1, “Aqueous outflow enhancement with vasodilated aqueous cavity” (priority 2004, published 2005).

Tested on: uptake of serotonin into human platelets
Conditions: at clinical doses

## CN[C@H]1CC[C@@H](c2ccc(Cl)c(Cl)c2)c2ccccc21 [sertraline]
  uptake of serotonin into human platelets: blocks the uptake of serotonin
